# CycPeptMPDB entries from one study

Collected by the curators of CycPeptMPDB (Li et al. 2023) from Townsend et al. 2020, doi:10.26434/chemrxiv.13335941.v1.

PAMPA is the parallel artificial membrane permeability assay, which has no cells and reads passive diffusion. Values are log10 P with P in cm/s, so -5 is more permeable than -7.

| structure (SMILES) | PAMPA (log10 cm/s) |
|---|---|
| CC(C)C[C@@H]1NC(=O)[C@@H](C)N(C)C(=O)[C@H]2CCCN2C(=O)[C@H](Cc2ccccc2)NC(=O)[C@@H](CC(C)C)N(C)C(=O)[C@H]2CCCN2C(=O)[C@@H](CC(C)C)NC1=O | -5.82 |
| CC(C)C[C@@H]1NC(=O)[C@H]2CCCN2C(=O)[C@@H](CC(C)C)NC(=O)[C@@H](CC(C)C)NC(=O)[C@H](C)NC(=O)[C@H]2CCCN2C(=O)[C@H](Cc2ccccc2)NC1=O | -6.76 |
| CC(C)C[C@@H]1C(=O)N[C@H](CC(C)C)C(=O)N2CCC[C@H]2C(=O)N(Cc2ccccc2)CC(=O)N[C@@H](Cc2ccccc2)C(=O)N2CCC[C@@H]2C(=O)N[C@@H](C)C(=O)N1C | -5.75 |
| CC(C)C[C@@H]1C(=O)N2CCC[C@@H]2C(=O)N[C@H](CC(C)C)C(=O)N[C@@H](Cc2ccccc2)C(=O)N2CCC[C@@H]2C(=O)N(C)[C@@H](C)C(=O)N(C)[C@H](CC(C)C)C(=O)N1C | -4.97 |
| CC(C)C[C@@H]1C(=O)N[C@@H](Cc2ccccc2)C(=O)N[C@H](C)C(=O)N(C)[C@@H](CC(C)C)C(=O)N[C@H](CC(C)C)C(=O)N2CCC[C@@H]2C(=O)N1C | -5.66 |
| CC(C)C[C@@H]1NC(=O)[C@H]2CCCN2C(=O)[C@H](CC(C)C)NC(=O)[C@H](CC(C)C)NC(=O)[C@@H](C)NC(=O)[C@H]2CCCN2C(=O)[C@H](Cc2ccccc2)NC1=O | -5.92 |
| CC(C)C[C@H]1NC(=O)[C@H]2CCCN2C(=O)[C@H](CC(C)C)N(C)C(=O)[C@@H](CC(C)C)NC(=O)[C@H](C)NC(=O)[C@H](Cc2ccccc2)NC1=O | -5.72 |
| CC(C)C[C@H]1NC(=O)[C@H]2CCCN2C(=O)CN(Cc2ccccc2)C(=O)[C@@H](CC(C)C)NC(=O)[C@H](C)NC(=O)[C@H](Cc2ccccc2)NC1=O | -5.62 |
| CC(C)C[C@@H]1C(=O)N[C@@H](Cc2ccccc2)C(=O)N[C@@H](Cc2ccccc2)CC(=O)N[C@H](CC(C)C)C(=O)N[C@@H](Cc2ccccc2)CC(=O)N2CCC[C@@H]2C(=O)N1C | -5.55 |
| CC(C)C[C@@H]1NC(=O)[C@H]2CCCN2C(=O)[C@H](CC(C)C)NC(=O)[C@H](CC(C)C)NC(=O)[C@@H](C)NC(=O)[C@H](Cc2ccccc2)NC1=O | -6.61 |
| CC(C)C[C@@H]1C(=O)N2CCC[C@H]2C(=O)N(C)[C@H](CC(C)C)C(=O)N[C@@H](Cc2ccccc2)C(=O)N[C@H](C)C(=O)N(Cc2ccccc2)CC(=O)N1C | -5.44 |
| CC(C)C[C@@H]1C(=O)N[C@H](CC(C)C)C(=O)N2CCC[C@@H]2C(=O)N[C@H](CC(C)C)C(=O)N[C@@H](Cc2ccccc2)C(=O)N2CCC[C@H]2C(=O)N(C)[C@H](C)C(=O)N1C | -5.90 |
| CC(C)C[C@@H]1C(=O)N2CCC[C@H]2C(=O)N[C@H](CC(C)C)C(=O)N[C@@H](Cc2ccccc2)C(=O)N2CCC[C@H]2C(=O)N(C)[C@@H](C)C(=O)N(C)[C@H](CC(C)C)C(=O)N1C | -6.49 |
| CC(C)C[C@@H]1NC(=O)[C@H](CC(C)C)N(C)C(=O)[C@@H](C)NC(=O)[C@@H]2CCCN2C(=O)[C@H](Cc2ccccc2)NC(=O)CN(Cc2ccccc2)C(=O)[C@@H]2CCCN2C1=O | -5.87 |
| CC(C)C[C@H]1NC(=O)CN(Cc2ccccc2)C(=O)[C@H](C)N(C)C(=O)[C@H]2CCCN2C(=O)[C@H](Cc2ccccc2)NC(=O)[C@H](CC(C)C)N(C)C(=O)[C@H]2CCCN2C1=O | -5.26 |
| CC(C)C[C@@H]1NC(=O)[C@H]2CCCN2C(=O)[C@@H](CC(C)C)NC(=O)[C@@H](CC(C)C)N(C)C(=O)C[C@H](Cc2ccccc2)NC(=O)[C@H]2CCCN2C(=O)[C@H](Cc2ccccc2)NC1=O | -5.99 |
| CC(C)C[C@@H]1C(=O)N[C@@H](Cc2ccccc2)C(=O)N2CCC[C@@H]2C(=O)N(C)[C@@H](C)C(=O)N(C)[C@@H](CC(C)C)C(=O)N(C)[C@@H](CC(C)C)C(=O)N2CCC[C@@H]2C(=O)N1C | -4.93 |
| CC(C)C[C@@H]1C(=O)N(C)[C@@H](CC(C)C)C(=O)N2CCC[C@H]2C(=O)N(C)[C@@H](CC(C)C)C(=O)N[C@@H](Cc2ccccc2)C(=O)N2CCC[C@@H]2C(=O)N(C)[C@@H](C)C(=O)N1C | -5.04 |
| CC(C)C[C@@H]1NC(=O)C[C@H](Cc2ccccc2)NC(=O)[C@H]2CCCN2C(=O)[C@H](Cc2ccccc2)NC(=O)[C@@H](CC(C)C)NC(=O)[C@H]2CCCN2C(=O)[C@@H](CC(C)C)NC1=O | -5.96 |
| CC(C)C[C@@H]1NC(=O)[C@H](CC(C)C)N(C)C(=O)[C@@H](C)N(C)C(=O)[C@H]2CCCN2C(=O)[C@H](Cc2ccccc2)NC(=O)[C@H](CC(C)C)N(C)C(=O)[C@@H]2CCCN2C1=O | -5.34 |
| CC(C)C[C@H]1NC(=O)[C@@H]2CCCN2C(=O)C[C@H](Cc2ccccc2)NC(=O)[C@H](CC(C)C)N(C)C(=O)[C@H](C)NC(=O)[C@H](Cc2ccccc2)NC1=O | -6.89 |
| CC(C)C[C@@H]1NC(=O)CN(Cc2ccccc2)C(=O)[C@@H](C)N(C)C(=O)[C@H]2CCCN2C(=O)[C@H](Cc2ccccc2)NC(=O)CN(Cc2ccccc2)C(=O)[C@H]2CCCN2C1=O | -6.56 |
| CC(C)C[C@@H]1C(=O)N[C@@H](Cc2ccccc2)CC(=O)N2CCC[C@H]2C(=O)N[C@H](CC(C)C)C(=O)N[C@@H](Cc2ccccc2)C(=O)N2CCC[C@@H]2C(=O)N(C)[C@@H](C)C(=O)N1C | -5.91 |

The first 2 entries again:

| structure (SMILES) | PAMPA (log10 cm/s) |
|---|---|
| CC(C)C[C@@H]1NC(=O)[C@@H](C)N(C)C(=O)[C@H]2CCCN2C(=O)[C@H](Cc2ccccc2)NC(=O)[C@@H](CC(C)C)N(C)C(=O)[C@H]2CCCN2C(=O)[C@@H](CC(C)C)NC1=O | -5.82 |
| CC(C)C[C@@H]1NC(=O)[C@H]2CCCN2C(=O)[C@@H](CC(C)C)NC(=O)[C@@H](CC(C)C)NC(=O)[C@H](C)NC(=O)[C@H]2CCCN2C(=O)[C@H](Cc2ccccc2)NC1=O | -6.76 |

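Conditions beyond the assay type are not listed; see the original paper. The list need not hold all peptides of the study. Entries at the database's floor value (log10 P of -10) are not listed.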